Reference: BindingDB's records for doi:10.1124/jpet.102.039867 (Institut De Recherches Servier, 2002)

Sequences of proteins named here, by UniProt entry; tags and fusion partners are left off.
UniProt P14416, whole entry: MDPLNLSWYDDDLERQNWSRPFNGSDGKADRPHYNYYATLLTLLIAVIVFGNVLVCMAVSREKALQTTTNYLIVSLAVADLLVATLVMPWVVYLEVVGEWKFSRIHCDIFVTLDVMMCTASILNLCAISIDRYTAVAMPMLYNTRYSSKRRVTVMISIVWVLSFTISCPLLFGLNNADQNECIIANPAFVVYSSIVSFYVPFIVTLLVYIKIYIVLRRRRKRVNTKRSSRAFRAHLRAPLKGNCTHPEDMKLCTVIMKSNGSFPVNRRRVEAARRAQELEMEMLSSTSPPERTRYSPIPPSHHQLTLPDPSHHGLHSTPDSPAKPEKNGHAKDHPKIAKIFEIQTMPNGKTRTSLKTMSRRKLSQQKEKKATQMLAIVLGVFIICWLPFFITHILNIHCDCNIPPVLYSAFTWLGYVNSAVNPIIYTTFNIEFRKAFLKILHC
UniProt P08913, whole entry: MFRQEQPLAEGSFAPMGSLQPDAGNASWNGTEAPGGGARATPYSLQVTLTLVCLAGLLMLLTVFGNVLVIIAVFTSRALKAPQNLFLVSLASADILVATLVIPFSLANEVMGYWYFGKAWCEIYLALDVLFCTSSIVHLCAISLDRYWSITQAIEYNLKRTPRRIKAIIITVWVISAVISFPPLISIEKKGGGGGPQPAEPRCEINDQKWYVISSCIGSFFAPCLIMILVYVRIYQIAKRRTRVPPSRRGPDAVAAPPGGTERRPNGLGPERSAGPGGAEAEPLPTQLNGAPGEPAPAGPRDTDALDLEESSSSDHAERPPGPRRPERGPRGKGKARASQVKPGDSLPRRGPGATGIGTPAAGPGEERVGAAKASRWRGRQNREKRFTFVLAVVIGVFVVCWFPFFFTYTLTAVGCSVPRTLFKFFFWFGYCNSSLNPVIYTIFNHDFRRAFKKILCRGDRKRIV
UniProt P18825, whole entry: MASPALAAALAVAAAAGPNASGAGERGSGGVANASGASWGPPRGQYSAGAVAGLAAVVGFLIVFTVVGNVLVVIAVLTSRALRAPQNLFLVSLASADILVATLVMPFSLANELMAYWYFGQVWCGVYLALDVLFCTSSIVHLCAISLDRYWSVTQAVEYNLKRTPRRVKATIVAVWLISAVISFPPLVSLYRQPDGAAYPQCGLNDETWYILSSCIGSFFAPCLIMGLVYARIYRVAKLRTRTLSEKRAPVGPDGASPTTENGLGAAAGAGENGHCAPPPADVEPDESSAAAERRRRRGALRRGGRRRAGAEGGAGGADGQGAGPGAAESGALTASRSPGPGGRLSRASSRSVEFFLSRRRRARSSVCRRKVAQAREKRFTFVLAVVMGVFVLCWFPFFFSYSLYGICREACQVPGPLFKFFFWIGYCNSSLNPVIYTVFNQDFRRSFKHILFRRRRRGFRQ
UniProt P28223, whole entry: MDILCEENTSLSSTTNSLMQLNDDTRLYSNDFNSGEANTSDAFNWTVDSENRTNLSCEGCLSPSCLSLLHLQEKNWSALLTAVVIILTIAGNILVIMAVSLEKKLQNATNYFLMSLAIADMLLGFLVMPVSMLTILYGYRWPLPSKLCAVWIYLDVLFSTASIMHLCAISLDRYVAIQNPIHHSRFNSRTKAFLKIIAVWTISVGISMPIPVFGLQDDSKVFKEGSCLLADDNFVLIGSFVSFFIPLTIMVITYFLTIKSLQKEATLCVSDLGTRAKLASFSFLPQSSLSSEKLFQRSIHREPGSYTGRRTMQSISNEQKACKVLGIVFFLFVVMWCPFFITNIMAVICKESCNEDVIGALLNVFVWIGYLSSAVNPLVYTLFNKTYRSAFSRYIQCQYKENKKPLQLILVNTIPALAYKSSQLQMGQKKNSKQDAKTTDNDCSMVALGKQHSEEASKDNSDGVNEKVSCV

Experiments:
D(2) dopamine receptor = D(2) dopamine receptor (Homo sapiens, UniProt P14416)
[1] = molecular target: Alpha-2A adrenergic receptor (Homo sapiens, UniProt P08913)
[2] = molecular target: Alpha-2C adrenergic receptor (Homo sapiens, UniProt P18825)
[3] = molecular target: 5-hydroxytryptamine receptor 2A (Homo sapiens, UniProt P28223)

Row | Structure (SMILES) | Ki (D(2) dopamine receptor) [nM] | Ki [1] [nM] | Ki [2] [nM] | Ki [3] [nM]
1 | Oc1ccc2[nH]cc(CCCCN3CC=C(c4ccccc4)CC3)c2c1 | 2.82 | – | – | –
2 | CC(C)C[C@H]1C(=O)N2CCC[C@H]2[C@]2(O)O[C@](NC(=O)[C@@H]3C=C4c5cccc6[nH]c(Br)c(c56)C[C@H]4N(C)C3)(C(C)C)C(=O)N12 [Bromocriptine+ (GTP+)] | – | 11 | 28.2 | –
3 | CCCN1CCC[C@@H]2Cc3n[nH]cc3C[C@H]21 [NSC_54562] | – | > 10000 | > 10000 | > 10000
